TrxR1 substrate: rat thioredoxin reductase 1 substrate activity; purified TrxR1 substrate turnover, NADPH consumption readout; Potency, µM (doses to about 114 µM); hit rate 0.01% among 390,000; further: nearly all actives have a fitted effect of over 50% in size
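Rat TrxR1, dispensed at 90 nM, was prereduced with 400 uM NADPH (final) for 5 min at ~22 deg C, then incubated with compound 15 min before 400 uM selenite. A first-read NADPH fluorescence drop versus no-compound background flagged substrates.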
miR-21 reporter: miR-21 reporter, rising signal | HeLa miR-21 FLuc reporter, luciferase, 48 h | Potency, µM (highest dose often 38.3 µM) | 340,000 tested, under 10 active | AID 2288; active = well fitted rising curve with a large enough effect; inconclusive = small, poorly fitted or top-dose-only effect; inactive = no such curve, though single readings can be large or run the other way;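 further: miR-21 action dims this reporter so a rising signal means less miR-21 action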
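Luminescence from a firefly luciferase reporter carrying a miR-21 binding site downstream, stably expressed under a CMV promoter in HeLa cells that make miR-21 endogenously, reports miRNA modulation after 48 h compound exposure up to approximately 40uM final.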
ClpP mod: qHTS Assay for Activators of ClpP | ATP-dependent Clp protease proteolytic subunit (Bacillus subtilis (strain 168)), P80244 | purified B. subtilis ClpP, FRET peptide cleavage, 20 min | Potency, µM (titrated, usually from 57.5 µM) | hit rate 1.9% among 340,000; active means well fitted falling curve with a large enough effect; inconclusive means small, poorly fitted or top-dose-only effect; inactive means no such curve, though single readings can be large or run the other way; further: the source files actives as falling curves though it sought activators and does not explain the sign; nearly all actives have a fitted effect of over 65% in size
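Buffer: 100 mM Tris/HCl pH8, 100 mM KCl, 0.05% low protease BSA, 2.5% glycerol, 0.01% Tween-20. ClpP 10 microg/mL final; 20 min RT; delta FRET normalized to ADEP and DMSO controls.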
TrxR1 inh: rat TrxR1 inhibition. O89049. recombinant rTrxR1, NADPH fluorescence consumption, selenite substrate. Potency, µM (series often up to 114 µM), hits mostly inhibitors. hit rate 1% among 390,000; further: nearly all actives have a fitted effect of over 65% in size
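Rat TrxR1 (90 nM in the dispensed reagent) was pre-reduced with 400 uM NADPH for 5 min at room temperature, then incubated with compound for 15 min. After 400 uM selenite was added, NADPH fluorescence (Ex 340/Em 450 nm) was followed for 8 min.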
Anesthetic bind: candidate novel general anesthetic via apoferritin binding. hit rate 0.074% among 350,000. AID 485281. apoferritin/1-aminoanthracene competitive binding, fluorescence. P02791. Potency, µM (top dose mostly 77.5 µM), most hits filed as inhibitors; further: nearly all actives have a fitted effect of over 20% in size
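Read-out: endpoint 1-AMA fluorescence, excitation 380 nm and emission 535 nm, after compounds sit 10 min at room temperature with 10 uM horse-spleen apoferritin in 50% saturated 1-AMA/PBS. Values come from four-parameter Hill fits.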
Of the large screens only hits and unclear results are named; the others gave an inactive call. Compounds with a hit are over-represented: about 2.5% of the library has one in this group of screens. Unless noted, the call rests on the fitted dose curve; in most records, active means well fitted curve in the direction sought with a large enough effect; inconclusive means small, poorly fitted or top-dose-only effect, or another doubt; inactive means no such curve, though single readings can be large; an effect the other way counts as inactive or inconclusive.

Sequences of proteins named here, by UniProt entry; tags and fusion partners are left off.
ATP-dependent Clp protease proteolytic subunit (Bacillus subtilis (strain 168)), P80244, UniProt P80244, whole entry, looked up: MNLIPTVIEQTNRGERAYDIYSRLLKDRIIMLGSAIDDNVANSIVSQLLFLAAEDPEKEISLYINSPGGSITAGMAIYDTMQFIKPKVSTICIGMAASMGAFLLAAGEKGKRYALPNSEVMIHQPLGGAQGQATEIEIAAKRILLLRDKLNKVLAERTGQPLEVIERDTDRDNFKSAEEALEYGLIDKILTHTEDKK

O=C(CCSCc1cnn(-c2ccccc2)c1-n1cccc1)NCc1ccccc1Cl	none
Cc1cccc(NC(=O)CSc2nc(C)cc(C)c2C(=O)Nc2ccc(Cl)cc2)c1	none
CNC(=O)c1c(NC(=O)c2ccc(S(=O)(=O)N3CCCCC3C)cc2)sc2c1CCC2 (configuration not stated)	none
Cc1cc(O)c(CN2CCN(c3ccc(F)cc3)CC2)c2oc(=O)cc(C)c12	TrxR1 inh 79µM
CCCc1c(C)c2ccc(O)c(CN3CCN(c4ccc(F)cc4)CC3)c2oc1=O	TrxR1 inh inconclusive
Cc1c2cnn(CC(=O)NCCc3ccccc3)c(=O)c2c(C)n1Cc1ccccc1	none
CCOC(=O)N1C(=O)[C@](c2ccc(Cl)cc2)(C(C)C)N1C(=O)OCC	TrxR1 inh 45µM
O=C(Cc1ccccc1)Nc1ccc2oc(=O)ccc2c1	none
O=C(Nc1ccc(Oc2ccc(NC(=O)c3ccco3)c(NC(=O)c3ccco3)c2)cc1)c1ccco1	none
O=C(Nc1cc2nn(-c3ccccc3)nc2cc1Cl)c1ccco1	none
O=C(Nc1ccc2nn(-c3ccccc3)nc2c1)c1ccco1	ClpP mod 32µM
O=C(Nc1ccc(Oc2ccc3ccccc3c2)cc1)c1ccco1	ClpP mod 16µM, Anesthetic bind inconclusive
O=C(Nc1ccc2oc(=O)ccc2c1)c1ccco1	ClpP mod 28µM
Cc1ccccc1C(=O)N1CCN(CCc2ccccn2)CC1	none
CCN(CC)CCOC(=O)c1ccc(NC(=O)c2cc3cc(OC)ccc3oc2=O)cc1	none
CC(=O)c1cccc(NC(=O)Oc2ccccc2)c1	none
CC(=O)c1cccc(OC(=O)c2ccccc2)c1	ClpP mod 14µM (no result: miR-21 reporter, Anesthetic bind)
CCN1CCc2c(sc(N)c2C(N)=O)C1	ClpP mod 14µM
NC(=O)c1c(N)sc2c1CCCC2	TrxR1 inh 50µM
CN1CCc2c(sc(N)c2C(N)=O)C1	ClpP mod 20µM, TrxR1 inh inconclusive
COc1cccc(N(CC(=O)N2CCC(C)CC2)S(=O)(=O)c2ccc(C)cc2)c1	none
Cn1c(=O)cc(OCCCC(=O)Nc2ccc(F)cc2)c2ccccc21	none
COc1ccc(C(=O)/C=C/Sc2nc3ccccc3o2)cc1	TrxR1 inh 1µM (no result: ClpP mod)
CCn1nc(NC(=O)c2ccccn2)c2cc3cccc(C)c3nc21	ClpP mod 32µM
S=c1[nH]nc(-c2ccncc2)n1/N=C/C=C/c1ccco1	TrxR1 inh inconclusive
C(=C\c1ccco1)/C=N/n1cnnc1	TrxR1 inh 22µM
Cc1csc2nc(-c3cccc(NC(=O)c4cccc(F)c4)c3)cn12	none
Cc1ccc(N2C(=O)CC3(CC4C=CC3C4)C2=O)cc1 (configuration not stated)	Anesthetic bind 7.9µM
O=C(Nc1ccc(S(=O)(=O)N(Cc2ccccc2)c2ccccc2)cc1)c1ccc([N+](=O)[O-])cc1	none
CCn1c(SCC(=O)Nc2cccc(Cl)c2)nnc1-c1nonc1NC(C)=O	Anesthetic bind inconclusive
CCCOc1ccc(C2C(=O)N(C3CCCCCC3)CC(=O)N2CCC)cc1OC (configuration not stated)	none
CC(=O)c1cccc(-n2c(CCC(=O)O)ccc2-c2cccs2)c1	TrxR1 inh inconclusive
O=C(O)CCc1ccc(-c2cccs2)n1-c1ccc(C(=O)O)cc1	TrxR1 inh 71µM
Cc1c(-n2cc(C(=O)O)c(=O)c3cc(F)c(N4CCCC(O)C4)c(F)c32)c(=O)n(-c2ccccc2)n1C (configuration not stated)	ClpP mod 10µM
CNC(=O)c1nnsc1S(=O)(=O)c1ccc(Cl)cc1	miR-21 reporter inconclusive, TrxR1 inh 0.28µM, Anesthetic bind inconclusive (no result: ClpP mod)
O=C(c1nnsc1S(=O)(=O)c1ccc(Cl)cc1)N1CCOCC1	miR-21 reporter inconclusive, TrxR1 inh inconclusive (no result: ClpP mod)
Cc1ccccc1NC(NC(=O)c1cccnc1)C(Cl)(Cl)Cl (configuration not stated)	ClpP mod 13µM
O=C(COCc1cc(-c2cccs2)on1)N1CCN(c2ccccc2)CC1	none
CCCCCC1CC(CC(=O)Nc2ccc([N+](=O)[O-])cc2)OC1=O (configuration not stated)	Anesthetic bind inconclusive
CCCCCC1CC(CC(=O)Nc2ccc([N+](=O)[O-])cc2)C(=O)O1 (configuration not stated)	Anesthetic bind 16µM
CCc1ccc(-c2cn3c(n2)sc2cc(C(=O)NCCC4=CCCCC4)ccc23)cc1	ClpP mod 25µM
CCCNC(=O)c1ccc2c(c1)sc1nc(-c3ccc(C)cc3)cn12	ClpP mod 32µM
Cc1ccc(-c2cn3c(n2)sc2cc(C(=O)NCCC4=CCCCC4)ccc23)cc1	none
CCOC(=O)N1CCN(C(=O)c2ccc3c(c2)sc2nc(-c4ccccc4)cn23)CC1	none
Cc1ccc(-c2cn3c(n2)sc2cc(C(=O)N4CCCCC4)ccc23)cc1	ClpP mod 25µM
CCOC(=O)c1sc2ccccc2c1S(=O)(=O)Nc1c(C)cccc1C	none
CCN(CC)c1nc(NC2CCN(C)CC2)c2cc(OC)c(OC)cc2n1	none (no result: miR-21 reporter, Anesthetic bind)
COc1ccccc1C(=O)Nc1ccc(-c2cc(C(F)(F)F)nn2-c2ccccc2)cc1	ClpP mod 22µM
Cc1ccccc1NC(=O)C1CC(=O)N(c2ccccc2F)C1 (configuration not stated)	ClpP mod 14µM
O=C(Nc1ccccc1)c1nnsc1S(=O)c1ccc(Cl)cc1 (configuration not stated)	miR-21 reporter inconclusive, TrxR1 inh 1.3µM, Anesthetic bind inconclusive
O=C(c1nnsc1S(=O)c1ccc(Cl)cc1)N1CCOCC1 (configuration not stated)	miR-21 reporter inconclusive, TrxR1 inh 3.5µM (no result: ClpP mod)
Cc1nnsc1S(=O)c1ccc(Cl)cc1 (configuration not stated)	none
CCCOc1ccc(C2C(=O)N(C3CCCCC3)CC(=O)N2CCc2ccccc2)cc1OC (configuration not stated)	none
CCOC(=O)C1CCCN(Cc2cn3c(-c4cccc(Br)c4)nnc3s2)C1 (configuration not stated)	none
COc1ccc(CCN2C(=O)C3C4C=CC(C5CC45)C3C2=O)cc1OC (configuration not stated)	none
COc1ccc(CCN2C(=O)C3C4C=CC(C3C2=O)C2C(=O)N(CCc3ccc(OC)c(OC)c3)C(=O)C42)cc1OC (configuration not stated)	ClpP mod 1.8µM
CCCCc1cc(=O)oc2cc(OCc3nn[nH]n3)c(Cl)cc12	ClpP mod 28µM
CCCc1cc(=O)oc2c(C)c(OCc3nn[nH]n3)ccc12	none
CCN(Cc1ccccc1)c1ccccc1	none (no result: miR-21 reporter, Anesthetic bind)
CCN(Cc1ccccc1)c1ccc(/C=N/N=C(N)N)cc1	miR-21 reporter inconclusive, ClpP mod 25µM
CCc1nc2sc3ccccc3c(=O)c2c(=O)n1Cc1ccco1	TrxR1 inh 14µM

Source: PubChem (National Center for Advancing Translational Sciences (NCATS))
